The target in test [1] is human Y2 receptor (human) (UniProt P49146). The experiment in a line: 125I-PYY displacement, COS-7 membranes.
Test [2] addresses human Y1 receptor (human) (UniProt P25929). The experiment in a line: 125I-PYY displacement, COS-7 membranes.
Test [3] has as its target Y2-like receptor population expressed by human SK-N-Be(2) neuroblastoma cells. The experiment in a line: 125I-PYY displacement, SK-N-Be(2) membranes.

The chains behind the UniProt entries cited, without tags or fusion partners.
UniProt P49146, whole entry: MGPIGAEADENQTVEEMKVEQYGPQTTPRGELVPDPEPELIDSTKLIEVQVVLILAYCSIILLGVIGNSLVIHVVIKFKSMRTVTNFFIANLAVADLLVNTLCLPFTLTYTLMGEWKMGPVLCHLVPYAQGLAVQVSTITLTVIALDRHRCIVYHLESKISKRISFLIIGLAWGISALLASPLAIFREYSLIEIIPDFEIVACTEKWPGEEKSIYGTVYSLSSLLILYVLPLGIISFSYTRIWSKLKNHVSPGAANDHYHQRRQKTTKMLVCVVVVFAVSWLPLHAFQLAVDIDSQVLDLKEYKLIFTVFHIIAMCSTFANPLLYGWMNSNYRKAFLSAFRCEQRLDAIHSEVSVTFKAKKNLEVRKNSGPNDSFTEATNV
UniProt P25929, whole entry: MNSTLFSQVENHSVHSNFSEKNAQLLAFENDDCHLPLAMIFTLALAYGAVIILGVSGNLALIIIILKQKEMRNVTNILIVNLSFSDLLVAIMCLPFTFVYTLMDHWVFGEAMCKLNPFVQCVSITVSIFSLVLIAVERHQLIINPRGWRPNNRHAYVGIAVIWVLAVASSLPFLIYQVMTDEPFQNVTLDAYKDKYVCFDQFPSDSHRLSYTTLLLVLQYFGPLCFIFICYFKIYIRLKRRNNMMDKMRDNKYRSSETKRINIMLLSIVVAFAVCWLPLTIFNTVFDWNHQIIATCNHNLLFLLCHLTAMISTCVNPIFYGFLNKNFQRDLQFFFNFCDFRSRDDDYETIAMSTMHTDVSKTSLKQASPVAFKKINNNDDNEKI

As to PP, salmon (peptide), the Ki in test [1] was 0.17 nM.

As to “human neuropeptide Y, P01303 29-64 (peptide; C-terminal amide; other documents disagree on this pair)”, the Ki in test [1] is 0.74 nM.

In the case of “porcine NPY2-36 (from UniProt P01304 11-45) (peptide)”, the Ki worked out at 1.4 nM in test [2] and 1.2 nM in test [1].

In turn, “porcine NPY13-36 (from UniProt P01304 22-45) (peptide)” yielded an inhibition constant Ki in test [3] of 1.8 nM.

For the substance “porcine neuropeptide Y (from UniProt P01304 10-45)”, the inhibition constant Ki in test [3] was 0.28 nM.

In general, Ki refers to a measure of affinity in units of concentration, obtained from inhibition or displacement. Low values mean higher affinity, high ones lower affinity.
